The target of one assay is sigma-2 receptor (S2R) (Rattus norvegicus, UniProt Q5U3Y7). Briefly: Sigma-2 receptor competitive radioligand binding assay with [3H]DTG in rat liver membranes, S1R masked with 100 nM (+)-pentazocine. The following applies: read-out: S2R Ki ± S.E.M., separated enantiomers, 17 nM [3H]DTG, 100 nM (+)-pentazocine to mask S1R.
A further assay deals with sigma-1 receptor (S1R) (Cavia porcellus, UniProt Q60492). The experiment in a line: Sigma-1 receptor competitive radioligand binding assay with [3H](+)-pentazocine in guinea pig liver membranes. The following applies: separated enantiomers; for Ki: read-out: S1R Ki ± S.E.M., guinea pig liver membranes, [3H](+)-pentazocine; for Selectivity (S2R/S1R): KiS2R/KiS1R.

The chains behind the UniProt entries cited, without tags or fusion partners. Where a name states a change or a piece, a line headed by the entry shows the natural chain unless it says otherwise.
UniProt Q5U3Y7, whole entry: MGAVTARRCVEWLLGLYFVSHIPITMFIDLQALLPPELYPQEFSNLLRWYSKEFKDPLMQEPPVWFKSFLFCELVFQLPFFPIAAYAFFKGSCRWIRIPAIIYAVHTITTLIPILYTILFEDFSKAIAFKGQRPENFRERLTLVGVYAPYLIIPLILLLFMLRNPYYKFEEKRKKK
UniProt Q60492, whole entry: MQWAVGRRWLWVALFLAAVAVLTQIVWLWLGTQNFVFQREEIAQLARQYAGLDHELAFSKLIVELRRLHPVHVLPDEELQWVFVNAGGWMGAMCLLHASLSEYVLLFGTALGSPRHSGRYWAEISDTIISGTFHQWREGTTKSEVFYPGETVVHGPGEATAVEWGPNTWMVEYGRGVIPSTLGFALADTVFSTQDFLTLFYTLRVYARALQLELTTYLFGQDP

Values joined by “and” are separate entries in the source; they are usually repeats but may differ in a detail not shown here. Equal entries are not always repeated.

The term Ki denotes the dissociation constant of the complex between target and ligand, obtained from inhibition or displacement.

As to `N[C@H](CC(=O)NCc1cccc(C(F)(F)F)c1F)c1ccccc1`, the Ki was found to be 0.92 µM on sigma-2 receptor (S2R) and 0.699 µM on sigma-1 receptor (S1R). Moreover, at sigma-1 receptor (S1R), the Selectivity (S2R/S1R) amounted to 1.3.
As to `COc1cc2c(cc1OC)[C@@H](CCNCc1ccccc1)NCC2`, the figures for the Ki at sigma-2 receptor (S2R) and at sigma-1 receptor (S1R) were 0.094 µM and 0.252 µM, respectively.
Regarding `N[C@@H](CC(=O)NCc1cccc(C(F)(F)F)c1F)c1ccccc1`, the Ki at sigma-2 receptor (S2R) amounted to 5.11 µM; on sigma-1 receptor (S1R), 0.081 µM. In addition, the Selectivity (S2R/S1R) at sigma-1 receptor (S1R) is 63.
For `COc1ccc(OC[C@H](O)CN2CCc3ccccc3C2)cc1`, the Ki at sigma-2 receptor (S2R) was found to be 0.176 µM. Further, on sigma-1 receptor (S1R), the Ki worked out at 0.058 µM and the Selectivity (S2R/S1R) was found to be 3.
On the same counts, the results for `COc1ccc(OC[C@@H](O)CN2CCc3ccccc3C2)cc1` are 0.463 µM, 0.132 µM and 3.5.
With `COc1cc2c(cc1OC)[C@H](CCNCc1ccccc1)NCC2`, on sigma-2 receptor (S2R), the Ki was 0.169 µM. In addition, at sigma-1 receptor (S1R), the Ki was found to be 0.011 µM; the Selectivity (S2R/S1R) is 15 and 15.4.

The values are drawn from publication PMC8347176, “Novel High Affinity Sigma-1 Receptor Ligands from Minimal Ensemble Docking-Based Virtual Screening” (International Journal of Molecular Sciences, 2021).
